# Yeast mating assay 2: variants of the scFv Ab-95

All variants were tested on one target, the spike HR2 peptide PDVDLGDISGINAS (SARS-CoV-2).

Each scFv is VH, three GGGGS repeats, VL, as in the parent Ab-95, and differs from it in the CDRs of the light chain only.
VH: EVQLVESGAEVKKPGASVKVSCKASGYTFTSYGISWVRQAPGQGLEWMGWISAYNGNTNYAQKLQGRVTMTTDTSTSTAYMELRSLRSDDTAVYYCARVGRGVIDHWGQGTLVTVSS
VL: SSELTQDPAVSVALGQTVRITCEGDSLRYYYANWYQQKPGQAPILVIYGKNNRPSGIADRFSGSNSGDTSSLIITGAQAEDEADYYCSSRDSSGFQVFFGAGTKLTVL

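Phage display of a naive human antibody library on the peptide gave the parent. In library AAYL52, one, two or three CDR residues were substituted; doubles and triples were drawn at random. Affinity was read by AlphaSeq, a pooled yeast mating assay with surface-displayed partners. After mating in shaken culture at 30 °C for 16 h, diploids were selected and their barcode pairs sequenced. The ratio of observed to expected reads was calibrated, replicate by replicate, on BCL2-family standards whose Kd was known from biolayer interferometry. Each pool was mated in three replicate cultures.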

Positions count from residue 1 of the parent VL; Y29S puts S in place of Y.
This list gathers variants with a substitution at S93 (VL, numbered from residue 1).
Values are apparent Kd, the geometric mean of the replicates that gave a signal; lower means stronger binding.
A pair that was not seen in any replicate is written "nd"; this usually means weak binding, but a binder can also be missed.

With Y29S+S93V+V97S the result was 200 nM (3 of 3 replicates).
With N33V+S88M+S93W the result was 3.3 µM (2 of 3 replicates).
With L27M+S55L+S93D the result was 990 nM (3 of 3 replicates).
With E23Q+S88R+S93I the result was 12 µM (1 of 3 replicates).
With R28T+Y29W+S93V the result was 7.7 µM (3 of 3 replicates).
With G24S+G49L+S93M the result was nd (0 of 3 replicates).
With N52T+S93C+Q96P the result was 160 nM (3 of 3 replicates).
With S55V+S93I the result was 1.3 µM (2 of 3 replicates).
With N33P+S89R+S93T the result was 19 µM (1 of 3 replicates).
With L27Y+N33R+S93Q the result was 7.7 µM (2 of 3 replicates).
With E23G+R53L+S93R the result was 550 nM (2 of 3 replicates).
With S92H+S93F the result was 390 nM (3 of 3 replicates).
With K50E+S93W+Q96V the result was 1.9 µM (2 of 3 replicates).
With D25H+K50I+S93R the result was 2.6 µM (3 of 3 replicates).
With L27P+A32L+S93L the result was 13 µM (2 of 3 replicates).
With N52K+S92H+S93K the result was 47 µM (1 of 3 replicates).
With R28C+S89V+S93D the result was 33 µM (1 of 3 replicates).
With K50Q+N51S+S93Y the result was 260 nM (3 of 3 replicates).
With D25C+S93I+F98D the result was 77 µM (2 of 3 replicates).
With N52G+P54Y+S93K the result was 11 µM (1 of 3 replicates).
With Y29E+S93M the result was 2.7 µM (2 of 3 replicates).
With R53W+S89E+S93R the result was nd (0 of 3 replicates).
With P54W+S93E the result was 1.2 µM (2 of 3 replicates).
With Y29W+S93L+V97Q the result was 62 µM (1 of 3 replicates).
With A32D+N51R+S93G the result was 1.2 µM (1 of 3 replicates).
With E23N+S93W+F98Y the result was nd (0 of 3 replicates).
With G24N+R53K+S93A the result was 9.3 µM (1 of 3 replicates).
With L27T+S93V the result was nd (0 of 3 replicates).
With S26Y+S93T the result was 650 nM (3 of 3 replicates).
With E23G+S89P+S93H the result was 2.6 µM (1 of 3 replicates).
With R53A+S55M+S93A the result was 3.5 µM (3 of 3 replicates).
With E23W+R28A+S93G the result was 4.8 µM (3 of 3 replicates).

The first 3 entries again:

| changes | Kd | seen in |
|---|---|---|
| Y29S+S93V+V97S | 200 nM | 3 of 3 |
| N33V+S88M+S93W | 3.3 µM | 2 of 3 |
| L27M+S55L+S93D | 990 nM | 3 of 3 |

Background: pairings of library AAYL52 with three empty control strains gave a value in 28% of cases (median 8.2 µM, 5th percentile 800 nM). Values in that range, when seen in few replicates, are hard to tell from nonspecific mating.
For reference, the parent read 200 nM as the reference entry and 180 nM as a member of this library.

Data: MIT Lincoln Laboratory AlphaSeq set, Engelhart et al. 2022, doi:10.1038/s41597-022-01779-4, as distributed in FLAb.